Among the data in PubChem BioAssay AID920 (The Scripps Research Institute Molecular Screening Center, 2007) are inhibition values, retold here.

The list shows a part of the results, in another mix than the full data. Some results for these compounds are left out of this collection, so the calls shown say nothing about other tests. Active and inactive are the calls of the source.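 How the source made its calls: active means inhibition above a set limit, the mean inhibition across all tested compounds plus 3 SD (cut at about 34% in these data); inactive means the rest.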

A short description of the test: STAT1 signaling inhibitors, primary screen, cell-based, HTS, luciferase reporter (AID 920).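 Further: 0% = IFN-gamma with DMSO and 100% = IFN-gamma with 300 µM nifuroxazide.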 As to conditions: NIH 3T3 STAT1-luciferase reporter, IFN-gamma, luminescence; at 5.5 µM; active compounds read high. For orientation: In a reporter assay the amount or activity of a reporter protein is the signal.
For `CN(C)C1CCCC1OC(=O)C(O)(c1ccccc1)c1ccccc1` (centres undefined), the inhibition (in general, the drop in the measured response relative to a control, in per cent) was inactive: 4.06%.
To `Cc1ccccc1C(=O)NCC1(N2CCCCC2)CCCCC1` belongs inactive: 0.72%; to `C=CCN1CCN(CCOC(=O)C(O)(c2ccccc2)c2ccccc2)CC1`, inactive: 1.6%; to `CCN1CCCC(OC(=O)C2(O)c3ccccc3C=Cc3ccccc32)C1` (centres undefined), inactive: -4.66%.
To `O=C(NCC1(N2CCCCC2)CCCCC1)c1cc([N+](=O)[O-])ccc1Cl` belongs inactive: 4.58%; to `CC(C)N1C(=O)CC2(CCN(CCOC(=O)C(O)(c3ccccc3)c3ccccc3)CC2)C1=O`, inactive: 0.63%.
To `O=C(OC1CN2CCC1CC2)C(CO)(c1ccccc1)c1ccccc1` (centres undefined) belongs inactive: -5.43%; to `CN(C)c1cccc(C(=O)NCC2(N(C)C)CCCCC2)c1`, inactive: -0.88%; to `COc1cccc(C(=O)NCC2(N3CCCCC3)CCCCC2)c1`, inactive: 0.15%.
